According to patent US12146167B2 (priority 2021, dated 2024):

System: Cg_MetY_P2T (O-acetylhomoserine sulfhydrylase variant metY_P2T, SEQ ID NO: 6)
Conditions: 1 nmol polypeptide, O-acetyl homoserine-HCl, phosphate buffer 0.1 M, pH 7.5, 120 min at 50° C., LC-MS QQQ

Substance: methyl P-methylphosphinate
- Product: yes

Some compounds may have been tested in ways that are not shown here.
